# Test results from ChEMBL document CHEMBL1132796, “Multistep solution-phase parallel synthesis of spiperone analogues” (Bioorg Med Chem Lett, 2000).
# Amino acid sequences for entries named in this document (tags omitted).
# UniProt P28223, whole entry: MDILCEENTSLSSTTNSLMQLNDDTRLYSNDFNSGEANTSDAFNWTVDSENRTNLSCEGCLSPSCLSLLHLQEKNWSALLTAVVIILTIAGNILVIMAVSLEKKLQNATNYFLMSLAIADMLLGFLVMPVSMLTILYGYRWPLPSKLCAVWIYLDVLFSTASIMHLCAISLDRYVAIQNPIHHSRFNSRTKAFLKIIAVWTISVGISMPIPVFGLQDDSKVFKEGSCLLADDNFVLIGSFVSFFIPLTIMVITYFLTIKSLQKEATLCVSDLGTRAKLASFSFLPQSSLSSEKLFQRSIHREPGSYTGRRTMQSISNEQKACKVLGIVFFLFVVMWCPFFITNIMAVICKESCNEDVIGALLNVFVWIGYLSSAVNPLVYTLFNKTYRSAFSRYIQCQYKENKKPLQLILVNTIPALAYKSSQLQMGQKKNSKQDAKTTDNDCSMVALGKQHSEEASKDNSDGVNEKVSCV
# pIC50: −log10 of the molar value.
# Biological target: 5-hydroxytryptamine receptor 2A (Homo sapiens, UniProt P28223)
# Test: Compound was evaluated for its inverse agonist activity against 5-hydroxytryptamine 2A receptor
# Type: functional
compound,measurement,value
O=C1NCN(c2ccccc2)C12CCN(CCCOc1ccc(F)cc1)CC2 [SPIRAMIDE],pIC50,9.50
